Results as given in US8853281B2, “Cysteine protease inhibitors” (Medivir UK Ltd, priority 2008, dated 2014).

By UniProt entry, the sequences of proteins in these tests, tags left out. Residues count along the entry.
UniProt P25774, 115-331 limits assumed: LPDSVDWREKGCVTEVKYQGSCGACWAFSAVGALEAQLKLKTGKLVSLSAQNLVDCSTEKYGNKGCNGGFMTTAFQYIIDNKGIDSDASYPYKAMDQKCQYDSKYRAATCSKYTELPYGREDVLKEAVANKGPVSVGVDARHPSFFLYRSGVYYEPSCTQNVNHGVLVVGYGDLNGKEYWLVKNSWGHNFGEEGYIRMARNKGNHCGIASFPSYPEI
UniProt P43235, 115-329 limits assumed: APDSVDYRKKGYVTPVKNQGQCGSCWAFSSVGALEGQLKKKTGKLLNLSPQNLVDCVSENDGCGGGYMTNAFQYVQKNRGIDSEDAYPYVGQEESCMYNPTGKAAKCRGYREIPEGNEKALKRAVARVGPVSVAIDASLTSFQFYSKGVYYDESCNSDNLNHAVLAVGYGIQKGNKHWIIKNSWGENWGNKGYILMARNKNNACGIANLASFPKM
UniProt P07711, 114-333 limits assumed: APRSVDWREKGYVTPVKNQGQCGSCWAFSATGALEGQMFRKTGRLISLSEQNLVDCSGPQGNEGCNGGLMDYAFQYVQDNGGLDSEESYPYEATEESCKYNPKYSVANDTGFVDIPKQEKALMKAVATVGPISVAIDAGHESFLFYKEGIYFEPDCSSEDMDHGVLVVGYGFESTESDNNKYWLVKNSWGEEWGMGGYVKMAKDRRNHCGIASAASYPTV

Assays:
[1] = biological target: human cathepsin S (Homo sapiens, UniProt P25774); assay: Cathepsin S Ki determination (boc-Val-Leu-Lys-AMC fluorescent substrate); conditions: read-out: Ki Cat. S; baculovirus-expressed human cathepsin S 2 nM, pH 6.5, competitive inhibition fit
Procedure: Cathepsin S Ki Determination
The assay uses baculovirus-expressed human cathepsin S and the boc-Val-Leu-Lys-AMC fluorescent substrate available from Bachem in a 384 well plate format, in which 7 test compounds can be tested in parallel with a positive control comprising a known cathepsin S inhibitor comparator.
280 μl/well of 12.5% DMSO are added to rows B-H of two columns of a 96 deep well polypropylene plate. 70 μl/well of substrate is added to row A. 2×250 μl/well of assay buffer (100 mM Na phosphate, 100 mM NaCl, pH 6.5) is added to row A, mixed, and double diluted down the plate to row H. […]
The first test compound prepared in DMSO is added to column 1 of the top row, typically at a volume to provide between 10 and 30 times the initially determined rough Ki. […] Add 90 μl assay buffer containing 1 mM DTT and 2 nM cathepsin S to each well of rows B-H and 180 μl to row A. Mix row A using a multichannel pipette and double dilute to row G. Mix row H and read in the fluorescent spectrophotometer. […]
Using the a distributor such as a Multidrop 384, add 30 μl/well to all wells of the assay plate and read in fluorescent spectrophotomoter such as an Ascent. […]
(§1) Potential inhibitors are screened using the above assay with variable concentrations of test compound. […] Ki values were calculated according to equation 1. […]

[2] = biological target: cathepsin K (Homo sapiens, UniProt P43235); assay: Determination of cathepsin K proteolytic catalytic activity (H-D-Ala-Leu-Lys-AMC fluorogenic substrate); conditions: read-out: Ki Cat. K; human recombinant enzyme 5 nM, ambient temperature
Procedure: Determination of Cathepsin K Proteolytic Catalytic Activity
Convenient assays for cathepsin K are carried out using human recombinant enzyme, such as that described in PDB.
DE Homo sapiens cathepsin K (pycnodysostosis), mRNA (cDNA clone MGC:23107
The recombinant cathepsin K can be expressed in a variety of commercially available expression systems including E coli, Pichia and Baculovirus systems. The purified enzyme is activated by removal of the prosequence by conventional methods.
Standard assay conditions for the determination of kinetic constants used a fluorogenic peptide substrate, typically H-D-Ala-Leu-Lys-AMC, and were determined in either 100 mM Mes/Tris, pH 7.0 containing 1 mM EDTA and 10 mM 2-mercaptoethanol or 100 mMNa phosphate, imM EDTA, 0.1% PEG4000 pH 6.5 or 100 mM Na acetate, pH 5.5 containing 5 mM EDTA and 20 mM cysteine, in each case optionally with […] as stabiliser. The enzyme concentration used was 5 nM. The stock substrate solution was prepared at 10 mM in DMSO. […] Product fluorescence (excitation at 390 nm, emission at 460 nm) was monitored with a Labsystems Fluoroskan Ascent fluorescent plate reader. […]
as §1

[3] = biological target: human cathepsin L (Homo sapiens, UniProt P07711); assay: Cathepsin L Ki (H-D-Val-Leu-Lys-AMC substrate); conditions: read-out: Ki Cat. L; human cathepsin L 5 nM, sodium acetate pH 5.5
Procedure: The procedure above with the following amendments is used for the determination of Ki for cathepsin L.
The enzyme is commercially available human cathepsin L (for example Calbiochem). The substrate is H-D-Val-Leu-Lys-AMC available from Bahcem. The assay buffer is 100 mM sodium acetate 1 mM EDTA, pH5.5) The DMSO stock (10 mM in 100% DMSO) is diluted to 10% in assay buffer. Enzyme is prepared at 5 nM concentration in assay buffer plus 1 mM dithiothreitol just before use. 2 ul of 10 mM inhibitor made up in 100% DMSO is dispensed into row A. 10 μl of 50 μM substrate (= 1/200 dilution of 10 mM stock in DMSO, diluted in assay buffer).
Potential inhibitors are screened using the above assay with variable concentrations of test compound. Reactions were initiated by addition of enzyme to buffered solutions of substrate and inhibitor. Ki values were calculated according to equation 1.
[formula] where v0 is the velocity of the reaction, V is the maximal velocity, S is the concentration of substrate with Michaelis constant of KM, and I is the concentration of inhibitor.

Compound: O=C(NC1CC1)C(=O)C1(NC(=O)[C@H](CC2(F)CCCC2)NC(=O)c2ccc(O)c(F)c2)CCC1
- Ki [1]: 0.75 nM
- Ki [2]: 1400 nM
- Ki [3]: 1000 nM
